Sequences of proteins named here, by UniProt entry; tags and fusion partners are left off. Residues count along the entry.
UniProt P22629, 37-163 limits assumed: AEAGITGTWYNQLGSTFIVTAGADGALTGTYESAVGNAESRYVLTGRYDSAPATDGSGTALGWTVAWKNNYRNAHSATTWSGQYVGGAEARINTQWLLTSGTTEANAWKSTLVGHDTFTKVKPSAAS

According to patent US20200407708A1:

Molecular target: streptavidin (UniProt P22629)
Test: gel shift with streptavidin

biotinylated MNase-SpyCatcher002 (S50C)
percent of protein biotinylated (shifted in the presence of streptavidin): 90%
